# Source: PubChem BioAssay (Broad Institute)
# PglD inh: PglD (C. jejuni) enzyme inhibition | purified PglD enzyme, DTNB colorimetric CoA detection | inhibition, % at 12.5 µM | 360,000 compounds, 0.098% hits | AID 602405; in the data active = inhibition above about 16%, passing the limit was not always enough
# CFTR F508del cor: correctors of CFTR F508del function in bronchial epithelial cells | 350,000 compounds, 0.36% hits | activity (quench increase), % at 7.58 µM | CFBE cells, YFP halide quenching; stimulated with forskolin plus potentiator P3; % fluorescence drop versus neutral controls;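 active = mean added fluorescence quench of at least 8% versus neutral control, with both replicates also reaching 8%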;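 note: cells transiently co-express mutant CFTR-F508del with the halide-sensitive YFP; corrector assay measuring rescue of mutant channel to the surface after 24 h compound exposure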
# miR122 inh: inhibitors of miR-122 in Huh7 cells. Huh7 miR-122 Renilla luciferase sensor, 48 h; neutral wells = 0, positive control = 100. activation (reporter increase), % at 12.5 µM. 340,000 compounds, 0.3% hits. AID 602342;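 active = mean replicate activation score at least 90 and every replicate individually at or above 90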;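 note: higher luciferase means less miR-122 activity so hits act as miR-122 inhibitors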
# LGR2 antag: blocks bursicon-induced cAMP signaling via Drosophila LGR2. HEK293 LGR2, CRE-luciferase, bursicon-stimulated, 4 h. inhibition, % at 9.99 µM. 380,000 compounds, 0.35% hits;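 active = drop in luminescence signal, shown as inhibition above about 50% in the replicate tests, limit read from the data, passing the limit was not always enough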;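 note: agonist challenge used bursicon conditioned medium at about half maximal strength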
# UUG fidelity: modulators of yeast start codon fidelity, primary screen, whole organism, S. cerevisiae, single point, plate reader; S. cerevisiae UUG-firefly luciferase reporter, luminescence/redox ratio; activity score, % at 18.7 µM; 0.13% of 350,000 active; AID 602363, 2012;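 active = replicate mean at a twofold rise or more, about +100% in these data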;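 also: firefly luciferase made from a UUG start codon reports start codon fidelity; reporter light over untreated wells divided by growth signal over untreated wells; some hits fall short of that in this replicate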
# EWS-Fli inh: blocks EWS/Fli oncoprotein-driven transcription. A673 NR0B1-luciferase reporter, viability-normalised. 350,000 compounds, 0.67% hits. inhibition, % at 12.6 µM;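 active = mean inhibition of at least 50% after viability correction, with every replicate also passing that limit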;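 note: firefly luciferase signal divided by Alamar Blue viability fluorescence both relative to DMSO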
# Numbers without * were called inactive; . = no result; [ ] = remark or other dose. This is a sample that favours compounds with a hit; in the whole collection about 1.3% have one here.
No. | Molecule | UUG fidelity | CFTR F508del cor | miR122 inh
1 | O=c1c2ccccc2cnn1CCOc1ccccc1 | -80.0 | . | 0.8
2 | CO[C@@H]1CN(C)C(=O)c2ccc(NC(=O)c3cccc(Oc4ccccc4)c3)cc2OC[C@H](C)NC[C@H]1C | . | -0.2 | .
3 | CO[C@@H]1CN(C)C(=O)c2cc(NC(=O)c3ccc(-c4ccccc4)cc3)ccc2OC[C@@H](C)NC[C@@H]1C | 9.4 | -8.0 | .
4 | CO[C@H]1CN(C)C(=O)c2cc(NC(C)=O)ccc2OC[C@H](C)NC[C@H]1C | . | -0.1 | .
5 | CO[C@H]1CN(C)C(=O)c2cc(NC(=O)c3nc4ccccc4s3)ccc2OC[C@@H](C)NC[C@@H]1C | 1.0 | 0.1 | .
6 | CO[C@H]1CN(C)C(=O)c2cc(NC(C)=O)ccc2OC[C@@H](C)NC[C@@H]1C | . | 2.4 | .
7 | COc1cc2c(cc1OC)C(c1ccc(C(F)(F)F)cc1)CC(=O)N2 (configuration not stated) | 0.3 | 3.2 | 5.1
8 | CCCCNC(=S)NCC(c1ccccc1)c1c[nH]c2ccccc12 (configuration not stated) | -21.7 | 0.3 | 16.8

No. | LGR2 antag | EWS-Fli inh | PglD inh
1 | 86.4* | . | 1.5
2 | 10.9 | 69.9* | .
3 | 12.8 | 74.9* | -1.0
4 | -8.0 | 7.7 | .
5 | -1.7 | 53.7* | 25.7
6 | -3.1 | 3.4 | 19.2*
7 | 9.0 | 11.5 | 2.3
8 | -7.1 | 4.3 | 6.7

# Following part
No. | Molecule | UUG fidelity | CFTR F508del cor | miR122 inh
9 | CN(C)CCCNC(=S)NCC(c1ccc(Cl)cc1Cl)c1c[nH]c2ccccc12 (configuration not stated) | -17.0 | -0.1 | -3.7
10 | Cc1nc2ccccc2nc1SCC(=O)c1ccccc1 | . | . | .
11 | O=C(CSc1nc(-c2ccccc2)c(-c2ccccc2)o1)N1CCOCC1 | 111.3* | . | -2.4
12 | C[C@H](CO)N1C[C@H](C)[C@@H](CN(C)C(=O)Nc2ccc(C(F)(F)F)cc2)OCCCC[C@H](C)Oc2ccc(NC(=O)Nc3ccc(F)cc3)cc2C1=O | -9.8 | 9.3* | -3.2[16.7 µM]
13 | C[C@H]1CCCCO[C@@H](CN(C)C(=O)Nc2ccc(F)cc2)[C@@H](C)CN([C@@H](C)CO)C(=O)c2cc(NC(=O)C3CCCCC3)ccc2O1 | 1.9 | 0.9 | -6.5[16.7 µM]
14 | C[C@@H]1CCCCO[C@H](CN(C)C(=O)Nc2ccc(F)cc2)[C@@H](C)CN([C@H](C)CO)C(=O)c2cc(NC(=O)Nc3ccc(C(F)(F)F)cc3)ccc2O1 | 5.0 | 0.9 | 1.3[16.7 µM]
15 | C[C@H]1CCCCO[C@@H](CN(C)C(=O)Nc2ccc(C(F)(F)F)cc2)[C@@H](C)CN([C@@H](C)CO)C(=O)c2cc(NC(=O)Nc3ccc4c(c3)OCO4)ccc2O1 | -16.5 | 8.1* | 3.5[16.7 µM]
16 | C[C@H](CO)N1C[C@H](C)[C@H](CN(C)C(=O)Nc2ccc3c(c2)OCO3)OCCCC[C@H](C)Oc2ccc(NC(=O)Nc3ccc(C(F)(F)F)cc3)cc2C1=O | -14.0 | 4.5 | -3.7[16.7 µM]

No. | LGR2 antag | EWS-Fli inh | PglD inh
9 | -1.5 | 62.2* | -0.6
10 | -15.2 | . | .
11 | . | . | -5.9
12 | 9.9 | -3.2 | -1.8
13 | 65.6* | 19.2 | -1.0
14 | -1.6 | -14.4 | 3.4
15 | 7.6 | -38.9 | 3.3
16 | 10.2 | 1.0 | -0.3

# (further entries)
No. | Molecule | UUG fidelity | CFTR F508del cor | miR122 inh
17 | C[C@H]1CCCCO[C@@H](CN(C)C(=O)Nc2ccc(C(F)(F)F)cc2)[C@@H](C)CN([C@@H](C)CO)C(=O)c2cc(NC(=O)Nc3ccc(F)cc3)ccc2O1 | 0.2 | 8.3* | 4.6[16.7 µM]
18 | NC(=O)C1=C[C@@H](C2CCCCC2)C[C@@H](OCc2ccc(CO)cc2)O1 | 6.3 | 3.1 | -3.9
19 | COc1cc(NC(=O)CN2CCCCCC2)cc(OC)c1 | . | 0.0 | -4.3
20 | C[C@@H]1CN([C@H](C)CO)S(=O)(=O)c2ccc(-c3cccc(C#N)c3)cc2O[C@H]1CN(C)C(=O)Nc1ccccc1F | 1.4 | -0.4 | -6.2[16.7 µM]
21 | Cc1ccc(-n2nnc(-c3cc4ccccc4nc3Cl)n2)cc1 | -16.3 | -0.6 | .
22 | O=C(O)c1cccc(S(=O)(=O)N2CCCC(c3nc4c(nnn4Cc4ccc(F)cc4)c(=O)[nH]3)C2)c1 (configuration not stated) | -3.8 | 1.3 | .
23 | C[C@H](CO)N1C[C@H](C)[C@H](CN(C)C(=O)Nc2ccc(C(F)(F)F)cc2)OCCCC[C@H](C)Oc2ccc(NC(=O)CCC(F)(F)F)cc2C1=O | 17.5 | 2.4 | 51.2[16.7 µM]
24 | O=C(CCc1ccccc1)NC(=S)Nc1cccc(C(=O)O)c1 | -24.7 | -0.7 | 3.0

No. | LGR2 antag | EWS-Fli inh | PglD inh
17 | -0.6 | -7.5 | 1.3
18 | 16.9 | -8.5 | 0.2
19 | 13.0 | -0.9 | .
20 | -1.9 | 8.7 | -3.0
21 | -39.4 | -0.3 | -0.9
22 | 12.4 | -3.1 | 5.2
23 | 64.9* | 6.1 | -0.1
24 | -1.7 | . | -1.8

# Arranged by formula weight (rising): some entries from above
No. | Molecule | UUG fidelity | CFTR F508del cor | miR122 inh
7 | COc1cc2c(cc1OC)C(c1ccc(C(F)(F)F)cc1)CC(=O)N2 (configuration not stated) | 0.3 | 3.2 | 5.1
13 | C[C@H]1CCCCO[C@@H](CN(C)C(=O)Nc2ccc(F)cc2)[C@@H](C)CN([C@@H](C)CO)C(=O)c2cc(NC(=O)C3CCCCC3)ccc2O1 | 1.9 | 0.9 | -6.5[16.7 µM]
14 | C[C@@H]1CCCCO[C@H](CN(C)C(=O)Nc2ccc(F)cc2)[C@@H](C)CN([C@H](C)CO)C(=O)c2cc(NC(=O)Nc3ccc(C(F)(F)F)cc3)ccc2O1 | 5.0 | 0.9 | 1.3[16.7 µM]

No. | LGR2 antag | EWS-Fli inh | PglD inh
7 | 9.0 | 11.5 | 2.3
13 | 65.6* | 19.2 | -1.0
14 | -1.6 | -14.4 | 3.4
